Article PMC13649712

What was measured:
[1] = biological target: mouse PER1 1013-1291 (mouse) (UniProt O35973); assay: ITC; MicroCal PEAQ-ITC, 25 °C; 25 mM HEPES pH 7.5, 150 mM NaCl, 5% glycerol, 1 mM β-ME; 750 µM WDR5 (syringe) into 50 µM PER1, PER2 or RbBP5 (cell); 90 µM PER1 or PER2 (syringe) into 8 µM CRY1 1-496 (cell); one-site binding model; mean of triplicates
[2] = biological target: mouse PER2 1132-1252 (mouse) (UniProt O54943); assay: as above

Row | Substance | Kd [1] [µM] | Kd [2] [µM]
1 | mouse WDR5 22-334 N225A (from UniProt P61965 22-334) (domain or fragment; other documents disagree on this pair) | 7.3 | 
2 | mouse WDR5 22-334 (from UniProt P61965 22-334) (domain or fragment; other documents disagree on this pair) | 3.1 | 50
